Laboratory results: US20260022171A1 (23ANDME, published 2026)
Residue numbers refer to the chain shown, from its start.

Key:
hu-CD200R1-iso1-Alt ECD [1] = target: T1, hu-CD200R1-iso1-Alt ECD (human); assay: SPR Biacore 8K 37C; biotin-CD200R1 captured, antibody analyte
T1 chain: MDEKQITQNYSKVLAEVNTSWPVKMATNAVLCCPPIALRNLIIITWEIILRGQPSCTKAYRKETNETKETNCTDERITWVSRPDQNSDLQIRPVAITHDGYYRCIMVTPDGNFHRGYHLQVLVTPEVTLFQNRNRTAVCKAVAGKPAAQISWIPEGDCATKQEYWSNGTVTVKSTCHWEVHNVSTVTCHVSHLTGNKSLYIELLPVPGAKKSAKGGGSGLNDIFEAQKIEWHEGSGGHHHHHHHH

hu-CD200R1-iso4-Ref ECD = target: T2, hu-CD200R1-iso4-Ref ECD (human); assay: as above
T2 chain: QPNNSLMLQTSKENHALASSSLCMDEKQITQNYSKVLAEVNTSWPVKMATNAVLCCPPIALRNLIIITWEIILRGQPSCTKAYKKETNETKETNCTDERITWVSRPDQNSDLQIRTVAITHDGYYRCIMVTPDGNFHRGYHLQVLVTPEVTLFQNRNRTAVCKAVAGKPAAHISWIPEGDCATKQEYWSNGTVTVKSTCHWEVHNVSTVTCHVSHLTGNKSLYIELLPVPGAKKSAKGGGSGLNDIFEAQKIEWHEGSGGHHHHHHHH

hu-CD200R1-iso4-Alt ECD = target: T3, hu-CD200R1-iso4-Alt ECD (human); assay: as above
T3 construct: also called isoform 4 alt
T3 chain: T2 chain with K84R, T116P, H172Q

hu-CD200R1-iso1-Ref ECD [2] = target: T4, hu-CD200R1-iso1-Ref ECD (human); assay: as above
T4 chain: T1 chain with R61K, P93T, Q149H

hu-CD200R1-iso1-Alt ECD [3] = target: T1, hu-CD200R1-iso1-Alt ECD; assay: SPR Biacore 8K, comparison of KD
hu-CD200R1-iso1-Ref ECD [4] = target: T4, hu-CD200R1-iso1-Ref ECD; assay: SPR Biacore 8K, comparison of KD

B1: OX108 (commercial anti-CD200R1 antibody) (antibody, V domains shown)
VH: EVKLQQSGPELVKPGASVKMSCKASGYTFTSYVMHWVKQKPGQGLEWIGYINPYNDDTNYNEKFKGKATLTSDKSSSTAYMELSSLTSEDSAVYYCAREDYYGSRWGYWGQGTTLTVSS
VL: DIVLTQSPASLAVSLGQRATISCRASKSVSTSGYSYMHWYQQKPGQPPKLLIYLASNLESGVPARFSGSGSGTDFTLNIHPVEEEDAATYYCQHSRELLTFGAGTKLELK
**Q.** For B1, which Kd (hu-CD200R1-iso1-Alt ECD [1]) is on record?
**A.** 2.13 nM

**Q.** What about the koff (hu-CD200R1-iso1-Alt ECD [1]) of the same binder?
**A.** 0.00824 s⁻¹

**Q.** And the kon (hu-CD200R1-iso1-Alt ECD [1])?
**A.** 3.86e+06 M⁻¹ s⁻¹

**Q.** And the Kd (hu-CD200R1-iso4-Ref ECD)?
**A.** 16.2 nM

**Q.** And the koff (hu-CD200R1-iso4-Ref ECD)?
**A.** 0.00389 s⁻¹

**Q.** And the kon (hu-CD200R1-iso4-Ref ECD)?
**A.** 240000 M⁻¹ s⁻¹

**Q.** What about the Kd (hu-CD200R1-iso4-Alt ECD) of the same binder?
**A.** 15 nM

**Q.** And the koff (hu-CD200R1-iso4-Alt ECD)?
**A.** 0.00386 s⁻¹

**Q.** And the kon (hu-CD200R1-iso4-Alt ECD)?
**A.** 257000 M⁻¹ s⁻¹

**Q.** What about the Kd (hu-CD200R1-iso1-Ref ECD [2]) of the same binder?
**A.** 2.23 nM

**Q.** What about the koff (hu-CD200R1-iso1-Ref ECD [2]) of the same binder?
**A.** 0.00765 s⁻¹

**Q.** What about the kon (hu-CD200R1-iso1-Ref ECD [2]) of the same binder?
**A.** 3.43e+06 M⁻¹ s⁻¹

**Q.** What about the “fold greater affinity than for isoform 4” value (hu-CD200R1-iso1-Alt ECD [3]) of the same binder?
**A.** 10 fold

**Q.** And the “fold greater affinity than for isoform 4” value (hu-CD200R1-iso1-Ref ECD [4])?
**A.** 10 fold
